# Measurements reported in article PMC3446843 (Toxicological Sciences, 2012).
# Test system: isolated mouse liver mitochondria
# Experiment: Mitochondrial swelling
# Details: without Ca2+ pulse
smiles,measurement,value
O=C(O)Cc1ccccc1Nc1c(Cl)cccc1Cl [Diclofenac],induction of mitochondrial swelling (in words),unable to induce
